In data set [1] the test system is Fibroblast growth factor receptor 2 (Homo sapiens), P21802 [V564F]. As to the kind of experiment: Inhibition of FGFR2 V564F mutant (unknown origin) at 10 uM by radiometric kinase activity assay relative to control.
The nature of data set [2]: Stability in dog liver microsomes assessed as parent compound remaining at 1 uM incubated for 30 mins. The class given is ADME, Canis lupus familiaris, Microsome. To be noted: read-out: Stability. (Liver microsomes are vesicles of endoplasmic reticulum, rich in cytochrome P450 enzymes.)
Data set [3] can be described thus: Stability in rat liver microsomes assessed as parent compound remaining at 1 uM incubated for 30 mins. The class given is ADME, Microsome. The following applies: read-out: Stability.

Protein sequences, listed by entry. Tags and fused reporters are not part of them.
Fibroblast growth factor receptor 2 (Homo sapiens), P21802, UniProt P21802, whole entry V564F: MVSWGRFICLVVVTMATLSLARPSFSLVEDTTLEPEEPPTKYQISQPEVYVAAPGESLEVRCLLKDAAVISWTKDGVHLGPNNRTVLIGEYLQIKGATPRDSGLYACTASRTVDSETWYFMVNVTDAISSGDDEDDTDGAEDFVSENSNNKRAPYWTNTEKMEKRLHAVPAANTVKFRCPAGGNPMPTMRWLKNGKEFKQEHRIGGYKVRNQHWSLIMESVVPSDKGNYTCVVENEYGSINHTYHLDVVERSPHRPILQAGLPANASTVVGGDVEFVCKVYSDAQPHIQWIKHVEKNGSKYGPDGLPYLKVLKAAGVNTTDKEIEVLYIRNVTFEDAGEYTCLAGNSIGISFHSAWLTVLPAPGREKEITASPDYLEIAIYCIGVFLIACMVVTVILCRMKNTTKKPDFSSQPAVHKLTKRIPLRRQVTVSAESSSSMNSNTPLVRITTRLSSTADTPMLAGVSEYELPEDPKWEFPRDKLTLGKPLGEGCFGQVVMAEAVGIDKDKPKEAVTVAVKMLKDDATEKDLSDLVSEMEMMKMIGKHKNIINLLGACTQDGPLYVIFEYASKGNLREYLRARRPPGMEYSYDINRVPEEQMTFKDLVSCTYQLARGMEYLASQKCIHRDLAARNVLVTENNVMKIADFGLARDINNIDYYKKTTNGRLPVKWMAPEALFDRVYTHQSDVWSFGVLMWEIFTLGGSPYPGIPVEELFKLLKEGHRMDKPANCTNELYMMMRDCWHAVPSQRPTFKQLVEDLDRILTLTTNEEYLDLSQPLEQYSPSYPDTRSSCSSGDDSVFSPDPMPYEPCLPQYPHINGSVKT

SMILES strings stand for the structures.

Consider `CCN1CCN(c2ccc(Nc3cc(-c4cccnc4Nc4c(Cl)c(OC)cc(OC)c4Cl)ncn3)cc2)CC1`, for which the inhibition (as a rule, the relative decrease from the control value, in per cent) in data set [1] is below 50%.

As to `COc1cc(OC)c(Cl)c(Nc2ncccc2-c2ncnc(Nc3cnn(C4CCN(C(C)C)CC4)c3)n2)c1Cl`, the remaining at 0.5 h, 1 µM in data set [2] turned out to be 8.3%; in data set [3], 7.7%.

These data come from ChEMBL document CHEMBL5131515, “Identification of Pyridinyltriazine Derivatives as Potent panFGFR Inhibitors against Gatekeeper Mutants for Overcoming Drug Resistance” (J Med Chem, 2022).
